Columns and labels:
[1] = biological target: Human β2-AR (Homo sapiens, UniProt P07550); experiment: CRE-luciferase reporter gene (CRE-LUC) assay, CHO cells expressing human β2-AR; conditions: tested form: HCl
[2] = biological target: T1, Human β1-AR (Homo sapiens, UniProt P08588); experiment: CRE-luciferase reporter gene (CRE-LUC) assay, CHO cells expressing human β1-AR; conditions: tested form: HCl
[3] = biological target: T2, Human β3-AR (Homo sapiens, UniProt P13945); experiment: CRE-luciferase reporter gene (CRE-LUC) assay, CHO cells expressing human β3-AR; conditions: tested form: HCl
[4] = biological target: T3, rat-β3-AR (Rattus norvegicus, UniProt P26255); experiment: Binding in CHO cells expressing rat β3-AR; conditions: mean ± SEM (n in parentheses), tested form: HBr
[5] = biological target: T3, rat-β3-AR; experiment: cAMP accumulation in CHO cells expressing rat β3-AR; format: cell-based; conditions: tested form: HBr
[6] = biological target: T2, Human β3-AR; experiment: cAMP radioimmunoassay (cAMP-RIA), CHO cells expressing human β3-AR; format: cell-based; conditions: percentage of maximal response of R-(−)-isoproterenol (100%)
[7] = biological target: T1, Human β1-AR; experiment: cAMP radioimmunoassay (cAMP-RIA), CHO cells expressing human β1-AR; format: cell-based; conditions: percentage of maximal response of R-(−)-isoproterenol (100%)
[8] = biological target: human β3-Adrenoreceptor (Homo sapiens, UniProt P13945); experiment: Radioligand competition binding, human β3 adrenoreceptor expressed in CHO cells ([125I]ICYP); conditions: N = 3-9 (Table 5)

By UniProt entry, the sequences of proteins in these tests, tags left out.
UniProt P08588, whole entry: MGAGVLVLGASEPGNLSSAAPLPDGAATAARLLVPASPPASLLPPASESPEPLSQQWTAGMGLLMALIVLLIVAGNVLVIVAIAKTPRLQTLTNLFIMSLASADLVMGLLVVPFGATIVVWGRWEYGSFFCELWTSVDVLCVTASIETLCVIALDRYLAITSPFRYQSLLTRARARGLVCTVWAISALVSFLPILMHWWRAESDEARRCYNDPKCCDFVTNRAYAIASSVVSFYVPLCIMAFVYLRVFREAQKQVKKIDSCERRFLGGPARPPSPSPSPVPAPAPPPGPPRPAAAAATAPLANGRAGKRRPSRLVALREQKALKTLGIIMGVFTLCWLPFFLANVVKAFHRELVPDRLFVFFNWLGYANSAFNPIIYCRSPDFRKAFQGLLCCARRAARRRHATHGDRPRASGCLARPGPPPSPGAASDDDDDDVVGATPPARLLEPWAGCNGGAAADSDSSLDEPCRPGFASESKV
UniProt P13945, whole entry: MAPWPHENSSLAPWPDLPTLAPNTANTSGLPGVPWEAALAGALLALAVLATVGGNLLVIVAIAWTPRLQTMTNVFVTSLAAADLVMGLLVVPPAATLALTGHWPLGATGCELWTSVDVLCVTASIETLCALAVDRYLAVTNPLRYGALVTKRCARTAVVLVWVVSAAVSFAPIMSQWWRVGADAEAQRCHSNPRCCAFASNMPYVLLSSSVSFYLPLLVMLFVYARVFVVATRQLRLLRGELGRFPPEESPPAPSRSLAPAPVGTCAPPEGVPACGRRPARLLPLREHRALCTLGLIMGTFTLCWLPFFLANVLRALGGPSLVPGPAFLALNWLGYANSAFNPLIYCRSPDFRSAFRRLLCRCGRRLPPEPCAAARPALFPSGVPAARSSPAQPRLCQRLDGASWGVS
UniProt P26255, whole entry: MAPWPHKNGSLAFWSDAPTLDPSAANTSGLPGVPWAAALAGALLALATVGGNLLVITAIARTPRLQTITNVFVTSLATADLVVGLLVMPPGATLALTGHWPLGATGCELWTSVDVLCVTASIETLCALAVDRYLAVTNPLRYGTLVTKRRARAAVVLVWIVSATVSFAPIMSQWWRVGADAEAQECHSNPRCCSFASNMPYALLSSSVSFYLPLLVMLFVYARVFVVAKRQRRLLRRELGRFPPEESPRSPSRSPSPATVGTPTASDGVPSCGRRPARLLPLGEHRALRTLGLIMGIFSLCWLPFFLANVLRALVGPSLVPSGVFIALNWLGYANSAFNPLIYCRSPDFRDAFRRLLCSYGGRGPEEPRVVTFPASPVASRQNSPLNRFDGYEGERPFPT

COc1c(I)cc(CC2NCCc3ccccc32)cc1I (stereo not drawn)
I.A., β2-AR [1]: 21
I.A., β1-AR [2]: 22
I.A., β3-AR [3]: 62

Oc1cc2c(cc1O)C(Cc1ccc(N=C=S)c(I)c1)NCC2 (stereo not drawn)
pKi (−log Ki) for binding, rat-β3-AR [4]: 5.83 )†
pKact (−log EC50) for cAMP accumulation, rat-β3-AR ([5]; CHO cells, mean ± SEM (n in parentheses)): 8.61 )†
Emax, maximal cAMP accumulation ([5]; relative to that of (−)-isoproterenol, CHO cells expressing rat-β3-AR): 104%

COc1c(I)cc(CC2NCCc3cc(O)c(O)cc32)cc1I (stereo not drawn)
I.A., Human β3-AR, cAMP-RIA assay [6]: 120 ± 9%
I.A. ± SEM, Human β1-AR, cAMP-RIA assay [7]: 103 ± 4%
pKi ± SEM, Human β3-AR [8]: 7.67 ± 0.24

Reference: US20050096347A1, “Beta3-Adrenoreceptor agonists, agonist compositions and methods of using” (Molecular Design International, Inc., priority 1997, published 2005)
